Measurements from patent US20090030015A1, “NOVEL MULTI-CYCLIC COMPOUNDS” (REVOTAR BIOPHARMACEUTICALS AG, priority 2005, published 2009).

Tests used:
[1] = target: T1, human P-Selectin-IgG-chimera (Homo sapiens, UniProt P16109); assay: Sialyl Lewis X Tyrosine Sulfate Assay (sLex TSA), P-selectin; format: binding; settings: sLexTSA
T1 sequence (P16109 42-771 limits assumed): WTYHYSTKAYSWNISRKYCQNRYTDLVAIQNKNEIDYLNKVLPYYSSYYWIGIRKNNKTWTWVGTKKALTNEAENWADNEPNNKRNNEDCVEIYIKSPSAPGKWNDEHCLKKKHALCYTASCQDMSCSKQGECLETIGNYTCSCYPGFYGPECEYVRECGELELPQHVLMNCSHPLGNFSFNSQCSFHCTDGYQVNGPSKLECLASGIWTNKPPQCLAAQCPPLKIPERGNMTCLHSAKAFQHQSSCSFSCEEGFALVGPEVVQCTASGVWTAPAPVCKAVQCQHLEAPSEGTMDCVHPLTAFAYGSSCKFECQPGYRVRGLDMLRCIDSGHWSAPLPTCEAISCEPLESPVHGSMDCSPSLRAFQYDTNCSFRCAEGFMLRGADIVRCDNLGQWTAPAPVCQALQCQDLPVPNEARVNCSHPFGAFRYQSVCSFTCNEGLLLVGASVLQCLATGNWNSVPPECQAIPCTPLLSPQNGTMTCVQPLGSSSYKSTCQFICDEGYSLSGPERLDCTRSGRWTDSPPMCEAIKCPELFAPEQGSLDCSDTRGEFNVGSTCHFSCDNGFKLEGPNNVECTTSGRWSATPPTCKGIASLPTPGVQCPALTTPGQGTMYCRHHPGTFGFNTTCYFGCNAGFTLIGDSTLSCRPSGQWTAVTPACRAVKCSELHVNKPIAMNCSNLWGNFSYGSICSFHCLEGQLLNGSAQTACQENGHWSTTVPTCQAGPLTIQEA
Description: (§1) Sialyl Lewis^X Tyrosine Sulfate Assay (sLe^x TSA):
(§2) Compounds of the present invention are assayed on a molecular level for their ability to inhibit the binding of P-, L-, or E-selectin chimeric molecules to sLe^x and tyrosinesulfate residues linked to a polymeric matrix as a PSGL-1 substitute. Selected IC50-values are determined.
(§3) Microtiter plates are coated overnight in carbonate buffer pH9.6 with goat anti human Fc mAB (10 μg/ml). After washing in assay buffer (25 mM 4-(2-hydroxyethyl)-1-piperazineethanesulfonic acid (HEPES), 150 mM NaCl, 1 mM CaCl2 pH7.4) and blocking (3% bovine serum albumin (BSA) in assay buffer) plates are incubated for 2 h at 37° C. with human P-Selectin-IgG-chimera (0.61 nM respectively 150 ng/mL) or human L-Selectin-IgG-chimera (0.61 nM respectively 89 ng/mL) or human E-Selectin-IgG-chimera (0.61 nM respectively 131 ng/mL). 5 μl of sLe^x-tyrosine sulfate polyacrylamide (1 mg/ml) carrying 15% sLe^x, 10% Tyrosine-sulfate and 5% biotin is complexed with 20 μl Streptavidin-Peroxidase solution (1 mg/ml) and 25 μl assay buffer without CaCl2. […] Bound sLe^x-Tyrosine sulfate ligand complex is determined by measuring optical density at 450 nm vs. 620 nm in a Fusion alpha-FP reader (sold from Packard Bioscience, Dreieich, Germany).

[2] = target: T2, human E-Selectin-IgG-chimera (Homo sapiens, UniProt P16581); assay: Sialyl Lewis X Tyrosine Sulfate Assay (sLex TSA), E-selectin; format: binding; settings: sLexTSA
T2 construct: fused on or other part: human IgG Fc part, captured on the plate by goat anti human Fc antibody; a tag, no second protein
T2 sequence (P16581 22-175 limits assumed): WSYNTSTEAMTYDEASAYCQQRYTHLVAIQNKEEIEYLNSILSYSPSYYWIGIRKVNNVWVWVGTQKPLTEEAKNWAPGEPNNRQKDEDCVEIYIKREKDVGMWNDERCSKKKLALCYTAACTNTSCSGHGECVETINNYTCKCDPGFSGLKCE
Description: as §1, §2, §3

With O=C(O)Cc1cccc(-c2cc(CCCCCCc3ccc(O[C@H]4O[C@H](CO)[C@@H](O)[C@H](O)[C@@H]4O)c(-c4cccc(CC(=O)O)c4)c3)ccc2O[C@H]2O[C@H](CO)[C@@H](O)[C@H](O)[C@@H]2O)c1 [Bimosiamose, bimosiamose, reference compound] the pIC50 [1] was 4.02 and the pIC50 [2] was under 3.30.

pIC50: −log10 of the molar value.
